## scFv variants of Ab-14 (light chain) against a SARS-CoV-2 spike peptide

Source: Engelhart et al. 2022 (doi:10.1038/s41597-022-01779-4), MIT Lincoln Laboratory and A-Alpha Bio; data file from the FLAb repository.

The target is the same throughout: PDVDLGDISGINAS, from the HR2 region of SARS-CoV-2 spike.

Ab-14 is the parent antibody, in scFv form: VH, then three GGGGS repeats, then VL. The heavy chain is unchanged in all variants.
VH: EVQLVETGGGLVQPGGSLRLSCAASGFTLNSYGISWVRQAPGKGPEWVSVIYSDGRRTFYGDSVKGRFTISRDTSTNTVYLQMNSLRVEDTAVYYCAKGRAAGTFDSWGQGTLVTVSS
VL: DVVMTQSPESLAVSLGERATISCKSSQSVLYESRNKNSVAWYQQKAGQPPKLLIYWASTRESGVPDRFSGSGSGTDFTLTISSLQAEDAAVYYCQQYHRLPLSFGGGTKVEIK

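Phage display of a naive human antibody library on the peptide gave the parent. Variants in AAYL50 differ from the parent at up to three CDR positions; double and triple changes were sampled at random. The scFvs were displayed on barcoded MATa yeast, the peptide on MATalpha yeast. Pairs that bind mate more often; barcode pairs of the diploids are counted by sequencing. Scores were corrected for input abundance and mapped to Kd with protein pairs of known affinity run in the same pool. There are three technical replicates.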

Variants are written as CDR1, CDR2 and CDR3 of the light chain (limits as in the source). Parent: KSSQSVLYESRNKNSVA, WASTRES, QQYHRLPLS. Affinities are written as log10 Kd with Kd in nM; a lower number is a better binder. Replicates are averaged; those with no signal do not enter the mean. A pair that was not seen in any replicate is written "not detected"; this usually means weak binding, but a binder can also be missed. As a blank, each scFv also met three strains without target: over library AAYL50, 18% of these pairings were detected, typically at 4.19 and seldom below 2.99. The control count says in how many pairings with the empty strains this scFv gave a signal. Parent in this assay: reference entry 0.65, copy in this library 1.68.

| CDR-L1 | CDR-L2 | CDR-L3 | mean log10 Kd (nM) | detected | control signals |
|---|---|---|---|---|---|
| KSSQSVLYESRNKNSVA | WISTRNS | QQYHRLPLF | not detected | 0 of 3 | 0 of 9 |
| KSSDSVWYESRNKNSVA | WASTRES | QAYHRLPLS | 1.50 | 3 of 3 | 2 of 9 |
| HSSQSVLYEPRNKNSVA | WASTRES | CQYHRLPLS | 4.35 | 2 of 3 | 4 of 9 |
| KSSQSVLYESRNKNSVA | WDSTRES | SQYHRLPLM | 2.93 | 2 of 3 | 3 of 9 |
| KSSQSVSYESRNKNSVA | WASTRES | VQYHRFPLS | 4.56 | 1 of 3 | 3 of 9 |
| KSSKSVIYESRNKNSVA | WASTRES | QQYHRLLLS | 4.43 | 1 of 3 | 2 of 9 |
| KSSQSVLYESRNKNCVA | WASTRPS | QTYHRLPLS | not detected | 0 of 3 | 1 of 9 |
| KSSQSVLAESRNKNSVA | WASTRES | NQYERLPLS | 3.92 | 1 of 3 | 1 of 9 |
| KSSFSVLYESRNKNSVQ | WASTRES | QQYHRLPLP | not detected | 0 of 3 | 0 of 9 |
| KSSQSVLYESRNKNSCA | WCSTRES | QAYHRLPLS | 4.22 | 2 of 3 | 1 of 9 |
| KWSQSVLYESRNKNSVA | IASTRES | QQYHRHPLS | 3.58 | 1 of 3 | 2 of 9 |
| KSSQSPLYESRNKNSVA | WAWTPES | QQYHRLPLS | 4.73 | 3 of 3 | 4 of 9 |
| KSSYSRLYESRNKNSVA | WASTRES | QQYHRLRLS | not detected | 0 of 3 | 0 of 9 |
| KPSSSVLYWSRNKNSVA | WASTRES | QQYHRLPLS | 1.78 | 3 of 3 | 4 of 9 |
| KSSQSVLYESRNKNSVA | WASTRES | QMYCRLPLT | not detected | 0 of 3 | 1 of 9 |
| KSSQSVLYESHNKNAVA | WASTRES | QQYRRLPLS | 1.08 | 3 of 3 | 5 of 9 |
| DSSQSVLYESRNKVSVA | WASTRES | QQNHRLPLS | 3.05 | 3 of 3 | 3 of 9 |
| KSSQSVLLESRNFNSWA | WASTRES | QQYHRLPLS | 2.04 | 1 of 3 | 0 of 9 |
| KSYQSVLYESRNKNSVA | WASFREG | QQYHRLPLS | not detected | 0 of 3 | 0 of 9 |
| KSSQSVLYESRNKNSVA | WASVLES | QQYHRSPLS | 3.62 | 3 of 3 | 1 of 9 |
| KSSQSTLYESRNKGSVA | WASTRQS | QQYHRLPLS | 1.40 | 3 of 3 | 2 of 9 |
| KSSQSVLYESRNCDSVA | WAQTRES | QQYHRLPLS | 1.68 | 3 of 3 | 3 of 9 |
| KSSQSVLYESRNKNLVA | WAYTREL | QQYHRLPLS | not detected | 0 of 3 | 2 of 9 |
| KSEQSVLYEMRNKNSVA | WASTRES | QQYHRLPLS | 2.47 | 3 of 3 | 1 of 9 |
| KSSQRVLYESRNQNSVA | WASTRES | QLYHRLPLS | not detected | 0 of 3 | 1 of 9 |
| KSSQSVLYESRNKNSVA | WASTPIS | QQYHRSPLS | 4.58 | 1 of 3 | 4 of 9 |
| KSSQPVLYESRFKDSVA | WASTRES | QQYHRLPLS | 1.68 | 3 of 3 | 2 of 9 |
| KSSQSVLMESRNKNSVA | WASTRES | QQYHPLPLS | not detected | 0 of 3 | 2 of 9 |
| KSIQSVLYESRNKNSVR | WASTRES | QQYHRLPLS | not detected | 0 of 3 | 0 of 9 |
| DSSQSVLYESRNKNSVA | WAWTRQS | QQYHRLPLS | 3.18 | 1 of 3 | 2 of 9 |
| KSSQSVLYESRNKNSMA | WASTDES | QQYHRLPLY | not detected | 0 of 3 | 0 of 9 |

Second part, the sequence after the result:

| mean log10 Kd (nM) | detected | control signals | CDR-L1 | CDR-L2 | CDR-L3 |
|---|---|---|---|---|---|
| not detected | 0 of 3 | 2 of 9 | KSSQSVLYSSRNKNSVA | WASTRES | NQYHRLPLF |
| 2.56 | 3 of 3 | 4 of 9 | KLSQSVLYESRNKNSVA | WYSTRES | QQYHRLPLS |
| 5.26 | 1 of 3 | 5 of 9 | KSSQSVLYESRNKNKVA | WWSTRES | QQYHRLRLS |
| 1.37 | 3 of 3 | 1 of 9 | KSSQSVLYESRNKNSVA | WASMRES | VQYHRLPLN |
| 3.75 | 1 of 3 | 0 of 9 | LSSQSVLYESRNKNSLY | WASTRES | QQYHRLPLS |
| 2.36 | 1 of 3 | 0 of 9 | KSVQSVLYESRNKNSVL | WACTRES | QQYHRLPLS |
| 1.35 | 3 of 3 | 6 of 9 | YSSQSVLYESRNKNSVA | WASTRES | QGVHRLPLS |
| 3.28 | 2 of 3 | 0 of 9 | KSSQSVLYESRNKNSVA | WRSTRMS | QIYHRLPLS |
| 2.76 | 3 of 3 | 3 of 9 | KSSQSVLYESRNNNCVA | WASTRTS | QQYHRLPLS |
| 4.83 | 1 of 3 | 0 of 9 | KSSQSVLYESRAKNSVA | WASTRES | QQYHRQILS |
| 3.61 | 2 of 3 | 1 of 9 | KSSQSVLQESRNKNSVA | WAWTRES | QQYHRLPLI |
| 0.93 | 3 of 3 | 4 of 9 | KSSGSVLYESRNKNSVA | WASTRES | QQYGRLPVS |
| 4.09 | 3 of 3 | 6 of 9 | KSSQHVLAESRNKNSVA | WASTRES | QQSHRLPLS |
| 6.18 | 1 of 3 | 1 of 9 | KSSQSVLYEVRNKNSVA | WASTRES | QMYHRLPLG |
| not detected | 0 of 3 | 3 of 9 | KSSQSVLYESHNKNSVA | WPSTRES | QQYHRKPLS |
| 0.68 | 3 of 3 | 1 of 9 | KQSQSVAYESRNKNSVA | WASTRES | QQYHRLPLS |
| 3.86 | 3 of 3 | 6 of 9 | RSSQSVLYYSRNKNSVA | WASKRES | QQYHRLPLS |
| not detected | 0 of 3 | 1 of 9 | KSSHSVLYASRNKNGVA | WASTRES | QQYHRLPLS |
| 0.75 | 3 of 3 | 2 of 9 | KSSQAILYESRNKNSVA | FASTRES | QQYHRLPLS |
| 4.31 | 2 of 3 | 1 of 9 | KRSQSVLYESRNKNSVA | WASTRES | QTYHRLLLS |
| not detected | 0 of 3 | 0 of 9 | CSSQSVLYESRIFNSVA | WASTRES | QQYHRLPLS |
| not detected | 0 of 3 | 0 of 9 | KSSQSVLYEFRNKNSVA | CASTREE | QQYHRLPLS |
| 3.77 | 1 of 3 | 4 of 9 | KSSQSKLYESRNKNSVA | WAHTRES | QQYHRLPLR |
| 3.09 | 1 of 3 | 1 of 9 | KSSQSVLYESRNKNSVA | WASTREF | SQYQRLPLS |
| 1.72 | 3 of 3 | 0 of 9 | KSSMWWLYESRNKNSVA | WASTRES | QQYHRLPLS |
| 0.51 | 3 of 3 | 0 of 9 | KVSQSVLYESRNKNSVA | WASTRES | QQYKRMPLS |
| 1.90 | 3 of 3 | 2 of 9 | KPSQSMLYESRNKNSVA | WASTRES | QQYHRLPLS |
| 1.10 | 3 of 3 | 3 of 9 | KSSASVLYESRNKNSVA | WASTRES | QQEHRLPLS |
| 3.22 | 3 of 3 | 2 of 9 | KSSFSVLYESRNKNSVA | WASTRCS | QQIHRLPLS |
| 4.07 | 3 of 3 | 0 of 9 | KSSQSVLYESRNKNTVA | WASTRES | QQYARLPCS |
| 3.08 | 3 of 3 | 6 of 9 | KSSQSVLYESRNKNSVA | WASDRES | QQYHRLHLS |
| 1.59 | 3 of 3 | 1 of 9 | KSSQSVSYESRNKNSVA | WASTLES | QQYHRLPLS |

Top 8 of the variants detected in all replicates, tightest first:

| CDR-L1 | CDR-L2 | CDR-L3 | mean log10 Kd (nM) | detected | control signals |
|---|---|---|---|---|---|
| KVSQSVLYESRNKNSVA | WASTRES | QQYKRMPLS | 0.51 | 3 of 3 | 0 of 9 |
| KQSQSVAYESRNKNSVA | WASTRES | QQYHRLPLS | 0.68 | 3 of 3 | 1 of 9 |
| KSSQAILYESRNKNSVA | FASTRES | QQYHRLPLS | 0.75 | 3 of 3 | 2 of 9 |
| KSSGSVLYESRNKNSVA | WASTRES | QQYGRLPVS | 0.93 | 3 of 3 | 4 of 9 |
| KSSQSVLYESHNKNAVA | WASTRES | QQYRRLPLS | 1.08 | 3 of 3 | 5 of 9 |
| KSSASVLYESRNKNSVA | WASTRES | QQEHRLPLS | 1.10 | 3 of 3 | 3 of 9 |
| YSSQSVLYESRNKNSVA | WASTRES | QGVHRLPLS | 1.35 | 3 of 3 | 6 of 9 |
| KSSQSVLYESRNKNSVA | WASMRES | VQYHRLPLN | 1.37 | 3 of 3 | 1 of 9 |